Key:
[1] = biological target: Human immunodeficiency virus type 1 reverse transcriptase (Human immunodeficiency virus 1) (UniProt Q72547); experiment: Inhibition of HIV-1 reverse transcriptase at 10 uM
[2] = biological target: Human immunodeficiency virus type 1 reverse transcriptase (Human immunodeficiency virus 1) (UniProt Q72547); experiment: Inhibition of HIV-1 reverse transcriptase at 100 uM

| SMILES | inhibition [1] [%] | inhibition [2] [%] |
| --- | --- | --- |
| CCc1c(C(=O)c2cc(C)cc(C)c2)n(COCc2ccc(F)cc2)c(=O)n(O)c1=O | 68 | 85 |
| CCOCn1c(C(=O)c2ccccc2)c(CC)c(=O)n(O)c1=O | 37 | 61 |
| CCc1c(C(=O)c2ccccc2)n(COCc2ccccc2)c(=O)n(O)c1=O | 61 | 84 |
| CCc1c(C(=O)c2ccccc2)n(COCc2ccc(F)cc2)c(=O)n(O)c1=O | 41 | 78 |
